{
  "source": "paper PMC6728138",
  "about": "“Quantitative mapping of protein-peptide affinity landscapes using spectrally encoded beads” (eLife, 2019)",
  "test_system": "CN N330A/I1331A/R332A mutant (CN NIR)",
  "test": "MRBLE-pep binding to CN NIR mutant defective in PxIxIT binding (250 nM)",
  "set-up": "species or system human",
  "from_the_text": "Using this new assay, we experimentally mapped portions of the CN-PxIxIT binding energy landscape by measuring CN binding to two MRBLE-pep libraries for each of the PVIVIT, PKIVIT, NFATc2, and AKAP79 sequences containing systematic mutations in either the ‘core’ (positions 1–6) or ‘flanking’ PxIxIT residues (positions −1 and 7–9) (368 peptides total) (Figure 3A, Figure 3—figure supplement 1, Figure 3—figure supplement 2, Figure 3—figure supplement 3, Figure 3—figure supplement 4, Figure 3—figure supplement 5, Figure 3—figure supplement 6, Figure 3—figure supplement 7, Figure 3—figure supplement 8, Figure 3—source data 1, Figure 3—source data 2, Figure 3—source data 3, Figure 3—source data 4, Figure 3—source data 5, Figure 3—source data 6, Figure 3—source data 7, Figure 3—source data 8). […] To ensure that measured binding resulted from a true CN-PxIxIT interaction and not nonspecific binding, we repeated all experiments at a single, high concentration (250 nM) using a CN N330A/I1331A/R332A mutant defective in PxIxIT binding (CN NIR) ([Li et al., 2004]) and labeled antibody alone (Figure 3—figure supplement 9, Figure 3—figure supplement 10, Figure 3—figure supplement 11, Figure 3—figure supplement 12; Figure 3—source data 9, Figure 3—source data 10). […]",
  "data": [
    {"substance": "PRIRIT", "values": [
      {"measurement": "binding by the CN NIR mutant in words", "value": "strongly bound"}
    ]}
  ]
}
